Results on 20 compounds are retold here after patent US10800772B2 (Gilead Sciences, Inc., priority 2016, dated 2020).

Series [1] in a line: Hum MS stability (human microsomal stability half-life).
For series [2] the following is noted: human, microsomes.

Where two headings read alike, the source gives them in different places.

In the case of `COCCN1CCC(c2nn(C)c3ccc(-c4nc5cc(C)c([C@H](OC(C)(C)C)C(=O)O)c(-c6ccc(Cl)cc6)c5s4)cc23)C1` (stereo partly drawn) [Compound 65, (2S)-2-(tert-butoxy)-2-(7-(4-chlorophenyl)-2-(3-(1-(2-methoxyethyl)pyrrolidin-3-yl)-1-methyl-1H-indazol-5-yl)-5-methylbenzo[d]thiazol-6-yl)acetic acid], the “Hum MS stability t½” value in series [1] was found to be 6.58 h. With “(S)-2-(tert-butoxy)- 2-(7-(4-chloro- phenyl)-2-(3-(1-(2- (dimethylamino) ethyl)piperidin-4- yl)-1-methyl-1H- indazol-5-yl)-5- methylbenzo[d] thiazol-6-yl) acetic acid [Compound 130]”, in series [2], the “Hum MS stability t½” value worked out at 6.58 h. `Cc1cc2nc(-c3ccc4c(c3)c(N3CCN(C5(C)COC5)CC3)nn4C)sc2c(-c2ccc(Cl)cc2)c1[C@H](OC(C)(C)C)C(=O)O` [Compound 207, (S)-2-(tert-butoxy)-2-(7-(4-chloro-phenyl)-5-methyl-2-(1-methyl-3-(4-(3-methyloxetan-3-yl)piperazin-1-yl)-1H-indazol-5-yl)benzo[d]thiazol-6-yl)acetic acid]: in series [1], the “Hum MS stability t½” value came to 6.58 h.

Consider `Cc1cc2nc(-c3ccc4c(c3)c(C3CN(C(C)C)C3)nn4C)sc2c(-c2ccc(Cl)cc2)c1[C@H](OC1CC1)C(=O)O` [Compound 55, (S)-2-(7-(4-chlorophenyl)-2-(3-(1-isopropylazetidin-3-yl)-1-methyl-1H-indazol-5-yl)-5-methylbenzo[d]thiazol-6-yl)-2-cyclopropoxyacetic Acid], for which the “Hum MS stability t½” value in series [1] stood at 6.58 h. On the same count and under the same terms, in the case of `CCN1CCC(c2nn(C)c3ccc(-c4nc5cc(C)c([C@H](OC(C)(C)C)C(=O)O)c(-c6ccc(Cl)cc6)c5s4)cc23)C1` (stereo partly drawn) [Compound 64, (2S)-2-(tert-butoxy)-2-(7-(4-chlorophenyl)-2-(3-(1-ethylpyrrolidin-3-yl)-1-methyl-1H-indazol-5-yl)-5-methylbenzo[d]thiazol-6-yl)acetic acid] it was 6.58 h; in that of `COCCN1CC(c2nn(C)c3ccc(-c4nc5cc(C)c([C@H](OC(C)(C)C)C(=O)O)c(-c6ccc(Cl)cc6)c5s4)cc23)C1` [Compound 56, (S)-2-(tert-butoxy)-2-(7-(4-chlorophenyl)-2-(3-(1-(2-methoxyethyl)azetidin-3-yl)-1-methyl-1H-indazol-5-yl)-5-methylbenzo[d]thiazol-6-yl)acetic acid], 6.58 h. Same read-out and setting: the figure for `Cc1cc2nc(-c3ccc4c(c3)c(N3CC[C@H](N(C)C)C3)nn4C)sc2c(-c2ccc(Cl)cc2)c1[C@H](OC(C)(C)C)C(=O)O` [Compound 93, (S)-2-(tert-butoxy)-2-(7-(4-chlorophenyl)-2-(3-((S)-3-(dimethylamino)pyrrolidin-1-yl)-1-methyl-1H-indazol-5-yl)-5-methylbenzo[d]thiazol-6-yl)acetic acid] is 6.58 h; for `Cc1cc2nc(-c3cnc4c(c3)c(C3CCN(C)CC3)cn4C)sc2c(-c2ccc(Cl)cc2)c1[C@H](OC(C)(C)C)C(=O)O` [Compound 106, (S)-2-(tert-butoxy)-2-(7-(4-chlorophenyl)-5-methyl-2-(1-methyl-3-(1-methylpiperidin-4-yl)-1H-pyrrolo[2,3-b]pyridin-5-yl)benzo[d]thiazol-6-yl)acetic acid] it is 6.58 h; for `Cc1cc2nc(-c3ccc4c(c3)c(N3CCN5C(=O)COC[C@@H]5C3)nn4C)sc2c(-c2ccc(Cl)cc2)c1[C@H](OC(C)(C)C)C(=O)O` [Compound 138, (S)-2-(tert-butoxy)-2-(7-(4-chloro-phenyl)-5-methyl-2-(1-methyl-3-((S)-4-oxohexa-hydropyrazino[2,1-c][1,4]oxazin-8 (1H)-yl)-1H-indazol-5-yl)benzo[d]thiazol-6-yl)acetic acid] it is 6.58 h. On the same count and under the same terms, in the case of `Cc1cc2nc(-c3ccc4c(c3)c(C3CCN(C5CCC5)C3)nn4C)sc2c(-c2ccc(Cl)cc2)c1[C@H](OC(C)(C)C)C(=O)O` (stereo partly drawn) [Compound 71, (2S)-2-(tert-butoxy)-2-(7-(4-chlorophenyl)-2-(3-(1-cyclobutylpyrrolidine-3-yl)-1-methyl-1H-indazol-5-yl)-5-methylbenzo[d]thiazol-6-yl)acetic acid] it was 6.58 h. On to `CCN1CC(c2nn(C)c3ccc(-c4nc5cc(C)c([C@H](OC(C)(C)C)C(=O)O)c(-c6ccc(Cl)cc6)c5s4)cc23)C1` [Compound 58, (S)-2-(tert-butoxy)-2-(7-(4-chlorophenyl)-2-(3-(1-ethylazetidin-3-yl)-1-methyl-1H-indazol-5-yl)-5-methylbenzo[d]thiazol-6-yl)acetic acid], for which the “Hum MS stability t½” value in series [1] was 6.58 h.

For the compound `Cc1cc2nc(-c3ccc4c(c3)c(N3CCN5CCOC[C@@H]5C3)nn4C)sc2c(-c2ccc(Cl)cc2)c1[C@H](OC(C)(C)C)C(=O)O` [Compound 4, (S)-2-(tert-butoxy)-2-(7-(4-chlorophenyl)-2-(3-((S)-hexahydropyrazino[2,1-c][1,4]oxazin-8(1H)-yl)-1-methyl-1H-indazol-5-yl)-5-methylbenzo[d]thiazol-6-yl)acetic Acid], the “Hum MS stability t½” value in series [1] stood at 6.58 h. Turning to “(S)-2-(2-(3-(1- ((R)-1-acetyl- pyrrolidin-3-yl) piperidin-4-yl)- 1-methyl-1H- pyrazolo[4,3-b] pyridin-5-yl)-7- (4-chlorophenyl)- 5-methylbenzo[d] thiazol-6-yl)-2- (tert-butoxy) acetic acid [Compound 169]”, the “Hum MS stability t½” value in series [2] turned out to be 0.5 h.

As for `COCC(C)N1CC(c2nn(C)c3ccc(-c4nc5cc(C)c([C@H](OC(C)(C)C)C(=O)O)c(-c6ccc(Cl)cc6)c5s4)cc23)C1` (stereo partly drawn) [Compound 124, (2S)-2-(tert-butoxy)-2-(7-(4-chlorophenyl)-2-(3-(1-(1-methoxypropan-2-yl)azetidin-3-yl)-1-methyl-1H-indazol-5-yl)-5-methylbenzo[d]thiazol-6-yl)acetic acid], in series [1], the “Hum MS stability t½” value was found to be 6.58 h. For the compound `CCN1CCC(c2nn(C)c3ccc(-c4nc5cc(C)c([C@H](OC(C)(C)C)C(=O)O)c(-c6ccc(Cl)cc6)c5s4)cc23)CC1` [Compound 126, (S)-2-(tert-butoxy)-2-(7-(4-chloro-phenyl)-2-(3-(1-ethylpiperidin-4-yl)-1-methyl-1H-indazol-5-yl)-5-methylbenzo[d]thiazol-6-yl) acetic acid], in series [1], the “Hum MS stability t½” value is 6.58 h. On the same count and under the same terms, the figure for `Cc1cc2nc(-c3ccc4c(c3)c(C3CN(C5COC5)C3)nn4C)sc2c(-c2ccc(Cl)cc2)c1[C@H](OC(C)(C)C)C(=O)O` [Compound 59, (S)-2-(tert-butoxy)-2-(7-(4-chlorophenyl)-5-methyl-2-(1-methyl-3-(1-(oxetan-3-yl)azetidin-3-yl)-1H-indazol-5-yl)benzo[d]thiazol-6-yl)acetic acid] is 6.58 h. On the same count and under the same terms, in the case of `Cc1cc2nc(-c3ccc4c(c3)c(C3CN(C(C)C)C3)nn4C)sc2c(-c2ccc(Cl)cc2)c1[C@H](OC(C)(C)C)C(=O)O` [Compound 54, (S)-2-(tert-butoxy)-2-(7-(4-chlorophenyl)-2-(3-(1-isopropylazetidin-3-yl)-1-methyl-1H-indazol-5-yl)-5-methylbenzo[d]thiazol-6-yl)acetic acid] it was 6.58 h. As to “(S)-2-(tert-butoxy)- 2-(7-(4-chloro- phenyl)-2-(3-((R)- hexahydropyrazino [2,1-c][1,4]oxazin- 8(1H)-yl)-1-methyl- 1H-indazol-5-yl)- 5-methylbenzo[d] thiazol-6-yl)acetic acid [Compound 135]”, the “Hum MS stability t½” value in series [2] was determined as 2.75 h. Turning to `Cc1cc2nc(-c3ccc4c(c3)c(C3CCN(C5CN(C)C5)CC3)nn4C)sc2c(-c2ccc(Cl)cc2)c1[C@H](OC(C)(C)C)C(=O)O` [Compound 31, (S)-2-(tert-butoxy)-2-(7-(4-chlorophenyl)-5-methyl-2-(1-methyl-3-(1-(1-methylazetidin-3-yl)piperidin-4-yl)-1H-indazol-5-yl)benzo[d]thiazol-6-yl)acetic acid], the “Hum MS stability t½” value in series [1] amounted to 6.58 h. The same measure, in the same setting: in the case of `Cc1cc2nc(-c3ccc4c(c3)c(N3CC(N(C)C)C3)nn4C)sc2c(-c2ccc(Cl)cc2)c1[C@H](OC(C)(C)C)C(=O)O` [Compound 90, (S)-2-(tert-butoxy)-2-(7-(4-chlorophenyl)-2-(3-(3-(dimethylamino)azetidin-1-yl)-1-methyl-1H-indazol-5-yl)-5-methylbenzo[d]thiazol-6-yl)acetic Acid] it was 6.58 h.
